Measurements reported in US10562947B2, “Compositions and methods for preventing or treating diseases, conditions or processes characterized by aberrant fibroblast proliferation and extracellular matrix deposition” (MOERAE MATRIX, INC., priority 2011, dated 2020).

By UniProt entry, the sequences of proteins in these tests, tags left out. Where a name states a change or a piece, a line headed by the entry shows the natural chain unless it says otherwise. Residues count along the entry.
UniProt P53667: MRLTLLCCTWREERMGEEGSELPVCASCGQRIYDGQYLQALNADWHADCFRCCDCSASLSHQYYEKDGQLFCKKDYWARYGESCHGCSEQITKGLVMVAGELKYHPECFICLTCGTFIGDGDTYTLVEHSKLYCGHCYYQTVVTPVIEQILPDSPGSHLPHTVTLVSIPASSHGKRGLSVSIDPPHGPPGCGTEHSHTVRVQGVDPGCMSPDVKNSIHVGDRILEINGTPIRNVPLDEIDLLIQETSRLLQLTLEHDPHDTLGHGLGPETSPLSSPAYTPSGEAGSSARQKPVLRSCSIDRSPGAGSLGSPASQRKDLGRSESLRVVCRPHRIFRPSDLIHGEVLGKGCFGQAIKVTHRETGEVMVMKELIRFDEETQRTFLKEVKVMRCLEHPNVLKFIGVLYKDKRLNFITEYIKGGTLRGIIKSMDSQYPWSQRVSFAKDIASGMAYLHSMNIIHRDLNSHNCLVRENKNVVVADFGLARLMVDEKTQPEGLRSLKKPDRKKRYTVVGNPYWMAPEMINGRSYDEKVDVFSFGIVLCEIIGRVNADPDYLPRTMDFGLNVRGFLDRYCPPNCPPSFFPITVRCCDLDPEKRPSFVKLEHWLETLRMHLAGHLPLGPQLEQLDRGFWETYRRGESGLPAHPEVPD
UniProt Q9H1R3, 2-596 limits assumed: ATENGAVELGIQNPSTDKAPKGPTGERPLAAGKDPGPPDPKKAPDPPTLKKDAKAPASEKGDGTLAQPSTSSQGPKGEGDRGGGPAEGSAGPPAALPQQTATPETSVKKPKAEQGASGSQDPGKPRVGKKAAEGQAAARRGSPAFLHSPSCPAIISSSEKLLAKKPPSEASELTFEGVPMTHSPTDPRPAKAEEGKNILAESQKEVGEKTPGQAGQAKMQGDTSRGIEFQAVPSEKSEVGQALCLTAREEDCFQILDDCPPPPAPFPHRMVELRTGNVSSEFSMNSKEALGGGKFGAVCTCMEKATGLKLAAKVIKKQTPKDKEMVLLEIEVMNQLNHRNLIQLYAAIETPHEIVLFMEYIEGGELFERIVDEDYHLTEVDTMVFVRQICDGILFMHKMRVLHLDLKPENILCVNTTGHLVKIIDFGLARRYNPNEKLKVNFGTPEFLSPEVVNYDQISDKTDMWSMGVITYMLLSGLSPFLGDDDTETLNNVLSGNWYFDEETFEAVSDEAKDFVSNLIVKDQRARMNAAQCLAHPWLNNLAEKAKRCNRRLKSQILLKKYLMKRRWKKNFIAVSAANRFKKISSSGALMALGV
UniProt P06213, 1005-1310 limits assumed: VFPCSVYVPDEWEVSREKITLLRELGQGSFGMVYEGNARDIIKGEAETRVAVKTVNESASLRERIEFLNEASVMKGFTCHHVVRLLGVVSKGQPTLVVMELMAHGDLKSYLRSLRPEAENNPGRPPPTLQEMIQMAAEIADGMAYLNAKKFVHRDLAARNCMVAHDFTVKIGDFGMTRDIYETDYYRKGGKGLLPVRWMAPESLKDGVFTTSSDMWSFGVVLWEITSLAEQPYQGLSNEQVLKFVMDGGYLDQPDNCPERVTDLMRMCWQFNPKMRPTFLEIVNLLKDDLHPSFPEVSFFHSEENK
UniProt Q5VT25: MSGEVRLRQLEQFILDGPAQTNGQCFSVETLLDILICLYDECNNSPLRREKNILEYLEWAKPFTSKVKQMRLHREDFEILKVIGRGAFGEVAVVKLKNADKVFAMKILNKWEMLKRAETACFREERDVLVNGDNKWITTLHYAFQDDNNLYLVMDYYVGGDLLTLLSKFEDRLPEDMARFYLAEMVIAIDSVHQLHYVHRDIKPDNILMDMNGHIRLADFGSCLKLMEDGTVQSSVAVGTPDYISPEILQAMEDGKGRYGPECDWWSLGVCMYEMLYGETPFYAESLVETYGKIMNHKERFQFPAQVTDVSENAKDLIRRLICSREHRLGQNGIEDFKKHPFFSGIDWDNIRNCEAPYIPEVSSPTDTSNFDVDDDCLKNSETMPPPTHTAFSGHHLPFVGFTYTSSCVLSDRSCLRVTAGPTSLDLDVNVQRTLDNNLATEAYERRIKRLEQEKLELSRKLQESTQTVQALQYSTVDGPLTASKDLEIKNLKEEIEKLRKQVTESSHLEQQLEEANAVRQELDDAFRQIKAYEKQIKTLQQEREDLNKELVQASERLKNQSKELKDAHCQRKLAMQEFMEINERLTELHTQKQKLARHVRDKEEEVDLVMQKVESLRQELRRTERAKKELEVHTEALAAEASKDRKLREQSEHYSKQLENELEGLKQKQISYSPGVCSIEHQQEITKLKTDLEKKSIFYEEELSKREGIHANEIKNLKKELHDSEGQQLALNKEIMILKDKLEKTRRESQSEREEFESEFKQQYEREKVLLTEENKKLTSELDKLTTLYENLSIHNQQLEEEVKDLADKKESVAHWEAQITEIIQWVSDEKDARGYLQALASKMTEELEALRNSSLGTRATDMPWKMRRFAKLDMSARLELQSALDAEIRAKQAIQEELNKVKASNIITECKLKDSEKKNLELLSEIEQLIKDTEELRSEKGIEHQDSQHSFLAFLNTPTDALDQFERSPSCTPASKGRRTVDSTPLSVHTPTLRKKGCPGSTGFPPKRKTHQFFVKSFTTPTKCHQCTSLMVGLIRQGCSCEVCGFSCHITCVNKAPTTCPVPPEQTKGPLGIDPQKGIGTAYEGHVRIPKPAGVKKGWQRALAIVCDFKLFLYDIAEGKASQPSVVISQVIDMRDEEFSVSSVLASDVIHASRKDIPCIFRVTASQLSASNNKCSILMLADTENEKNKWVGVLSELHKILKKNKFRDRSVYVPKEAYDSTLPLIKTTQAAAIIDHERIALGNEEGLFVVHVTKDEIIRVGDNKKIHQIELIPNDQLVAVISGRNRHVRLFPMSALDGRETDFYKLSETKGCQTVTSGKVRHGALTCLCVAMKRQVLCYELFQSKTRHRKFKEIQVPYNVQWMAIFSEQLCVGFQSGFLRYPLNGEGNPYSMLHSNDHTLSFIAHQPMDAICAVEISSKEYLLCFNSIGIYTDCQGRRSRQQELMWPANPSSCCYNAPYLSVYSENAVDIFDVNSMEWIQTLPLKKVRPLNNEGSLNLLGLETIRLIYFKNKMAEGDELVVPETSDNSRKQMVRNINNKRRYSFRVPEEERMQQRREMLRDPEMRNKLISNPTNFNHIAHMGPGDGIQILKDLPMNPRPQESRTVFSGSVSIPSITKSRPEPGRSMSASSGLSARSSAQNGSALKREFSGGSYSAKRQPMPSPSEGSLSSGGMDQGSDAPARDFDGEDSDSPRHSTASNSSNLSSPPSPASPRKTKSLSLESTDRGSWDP
UniProt P06239: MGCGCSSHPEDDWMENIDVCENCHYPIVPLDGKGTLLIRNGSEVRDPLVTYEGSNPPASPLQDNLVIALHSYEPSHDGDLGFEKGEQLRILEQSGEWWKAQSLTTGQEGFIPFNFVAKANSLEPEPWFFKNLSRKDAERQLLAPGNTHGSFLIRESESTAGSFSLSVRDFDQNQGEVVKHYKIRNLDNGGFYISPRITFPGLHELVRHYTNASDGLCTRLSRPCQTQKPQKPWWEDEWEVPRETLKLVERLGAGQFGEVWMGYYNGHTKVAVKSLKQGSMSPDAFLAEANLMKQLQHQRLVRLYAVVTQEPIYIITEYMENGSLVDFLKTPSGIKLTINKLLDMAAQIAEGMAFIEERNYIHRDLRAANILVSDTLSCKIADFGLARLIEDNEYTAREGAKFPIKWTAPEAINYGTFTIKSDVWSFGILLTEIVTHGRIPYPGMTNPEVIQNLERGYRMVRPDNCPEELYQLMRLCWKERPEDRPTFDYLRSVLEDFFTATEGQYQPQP
UniProt Q86Y07: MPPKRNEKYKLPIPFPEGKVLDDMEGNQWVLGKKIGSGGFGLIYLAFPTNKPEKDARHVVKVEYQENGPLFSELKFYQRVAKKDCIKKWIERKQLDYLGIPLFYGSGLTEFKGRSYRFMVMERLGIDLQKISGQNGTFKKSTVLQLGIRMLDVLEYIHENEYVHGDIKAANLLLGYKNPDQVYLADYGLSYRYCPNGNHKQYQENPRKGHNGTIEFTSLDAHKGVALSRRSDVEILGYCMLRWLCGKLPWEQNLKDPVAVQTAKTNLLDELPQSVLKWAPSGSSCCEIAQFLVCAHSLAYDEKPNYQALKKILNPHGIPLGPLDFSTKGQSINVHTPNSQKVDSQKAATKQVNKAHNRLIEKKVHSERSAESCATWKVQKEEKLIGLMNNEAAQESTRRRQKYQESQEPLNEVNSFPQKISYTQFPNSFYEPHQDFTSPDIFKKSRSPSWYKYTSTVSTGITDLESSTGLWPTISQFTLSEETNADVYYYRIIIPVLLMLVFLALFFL

Assays:
Assay in all cases: Kinase Profiling Assay
Format in all cases: biochemical
Details in all cases: 100 μM peptide
[1] = target: LIMK1(h) (Homo sapiens, UniProt P53667)
Outline: (§1)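 Duplicate activity readings per kinase; peptide inhibitors of MK2 profiled against 266 human kinases for selectivity.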

[2] = target: Abl(H396P)(h) (Homo sapiens, UniProt P00519, H396P)
Outline: as §1

[3] = target: T1, EphA1(h) (Homo sapiens, UniProt P21709)
T1 sequence (P21709 26-976): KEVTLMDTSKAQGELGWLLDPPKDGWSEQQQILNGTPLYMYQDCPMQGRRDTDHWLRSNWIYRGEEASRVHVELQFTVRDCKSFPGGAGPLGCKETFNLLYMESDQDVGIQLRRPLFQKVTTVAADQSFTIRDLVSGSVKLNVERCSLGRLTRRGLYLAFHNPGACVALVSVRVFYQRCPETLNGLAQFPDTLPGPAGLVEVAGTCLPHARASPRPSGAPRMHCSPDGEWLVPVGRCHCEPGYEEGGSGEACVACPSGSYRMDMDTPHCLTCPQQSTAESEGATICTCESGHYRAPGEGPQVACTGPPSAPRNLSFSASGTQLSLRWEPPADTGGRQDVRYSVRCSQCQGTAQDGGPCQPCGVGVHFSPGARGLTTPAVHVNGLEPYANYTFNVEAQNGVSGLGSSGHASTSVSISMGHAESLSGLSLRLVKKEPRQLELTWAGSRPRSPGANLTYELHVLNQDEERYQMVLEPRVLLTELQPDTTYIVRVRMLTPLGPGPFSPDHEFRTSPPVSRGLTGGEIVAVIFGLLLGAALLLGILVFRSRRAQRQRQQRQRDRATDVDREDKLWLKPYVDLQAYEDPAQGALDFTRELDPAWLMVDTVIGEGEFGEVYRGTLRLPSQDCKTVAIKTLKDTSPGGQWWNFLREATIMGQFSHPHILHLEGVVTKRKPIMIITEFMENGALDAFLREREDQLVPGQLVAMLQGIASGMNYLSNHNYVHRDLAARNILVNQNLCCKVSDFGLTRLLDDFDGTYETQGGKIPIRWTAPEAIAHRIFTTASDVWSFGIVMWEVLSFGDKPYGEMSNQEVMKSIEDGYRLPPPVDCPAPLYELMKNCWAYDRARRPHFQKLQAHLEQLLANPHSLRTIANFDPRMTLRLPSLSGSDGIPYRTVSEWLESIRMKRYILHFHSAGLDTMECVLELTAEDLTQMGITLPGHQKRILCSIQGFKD
Outline: as §1

[4] = target: T2, EphA3(h) (Homo sapiens, UniProt P29320)
T2 sequence (P29320 21-983): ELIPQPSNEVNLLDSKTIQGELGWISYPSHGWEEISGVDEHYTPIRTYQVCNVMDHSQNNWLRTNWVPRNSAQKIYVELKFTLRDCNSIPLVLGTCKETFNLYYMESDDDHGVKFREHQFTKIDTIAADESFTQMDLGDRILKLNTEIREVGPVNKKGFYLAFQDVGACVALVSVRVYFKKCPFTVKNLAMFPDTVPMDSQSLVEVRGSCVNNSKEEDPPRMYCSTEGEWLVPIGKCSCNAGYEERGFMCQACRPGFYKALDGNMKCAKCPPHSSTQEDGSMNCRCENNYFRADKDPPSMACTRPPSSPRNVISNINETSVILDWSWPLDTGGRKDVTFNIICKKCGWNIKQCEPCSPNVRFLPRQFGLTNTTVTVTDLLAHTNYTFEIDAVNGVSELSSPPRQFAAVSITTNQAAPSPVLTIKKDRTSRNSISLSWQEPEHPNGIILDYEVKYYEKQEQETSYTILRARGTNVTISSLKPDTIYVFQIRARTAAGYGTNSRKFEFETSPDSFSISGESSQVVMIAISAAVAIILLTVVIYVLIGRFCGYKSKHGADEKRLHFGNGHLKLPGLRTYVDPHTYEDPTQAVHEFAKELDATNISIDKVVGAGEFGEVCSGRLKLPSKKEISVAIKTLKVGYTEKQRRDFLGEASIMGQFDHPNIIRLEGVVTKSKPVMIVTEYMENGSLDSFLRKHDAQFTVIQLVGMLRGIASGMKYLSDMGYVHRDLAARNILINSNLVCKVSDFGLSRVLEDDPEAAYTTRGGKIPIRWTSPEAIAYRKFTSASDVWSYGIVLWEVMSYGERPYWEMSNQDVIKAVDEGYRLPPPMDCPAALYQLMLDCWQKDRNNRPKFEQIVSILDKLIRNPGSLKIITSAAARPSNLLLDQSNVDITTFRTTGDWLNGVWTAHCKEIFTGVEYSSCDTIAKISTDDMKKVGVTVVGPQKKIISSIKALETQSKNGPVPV
Outline: as §1

[5] = target: MLCK(h) (Homo sapiens, UniProt Q9H1R3)
Outline: as §1

[6] = target: T3, IR(h), activated (Homo sapiens, UniProt P06213)
T3 construct: purchased Millipore
Outline: as §1

[7] = target: MRCKα(h) (Homo sapiens, UniProt Q5VT25)
Outline: as §1

[8] = target: Lck(h) (Homo sapiens, UniProt P06239)
Outline: as §1

[9] = target: T4, Aurora-A(h) (Homo sapiens, UniProt O14965)
T4 sequence (O14965 1-403): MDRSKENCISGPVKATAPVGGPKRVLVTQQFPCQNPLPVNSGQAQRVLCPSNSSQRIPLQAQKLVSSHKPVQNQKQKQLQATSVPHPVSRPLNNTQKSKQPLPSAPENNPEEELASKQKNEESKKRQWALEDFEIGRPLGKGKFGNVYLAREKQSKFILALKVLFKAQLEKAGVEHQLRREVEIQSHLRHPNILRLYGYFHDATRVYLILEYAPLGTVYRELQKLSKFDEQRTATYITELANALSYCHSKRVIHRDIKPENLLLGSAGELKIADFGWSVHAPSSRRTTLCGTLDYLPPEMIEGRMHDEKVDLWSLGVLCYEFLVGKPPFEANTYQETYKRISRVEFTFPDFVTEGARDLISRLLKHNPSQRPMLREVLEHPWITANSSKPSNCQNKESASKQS
Outline: as §1

[10] = target: VRK2(h) (Homo sapiens, UniProt Q86Y07)
Outline: as §1

YARAAARQARAKALNRQLGVA (Mammalian) [MMI-0200]
LIMK1(h) % activity [1]: 109% | Abl(H396P)(h) % activity [2]: 121% | EphA1(h) % activity [3]: 136% | EphA3(h) % activity [4]: 117% | MLCK(h) % activity [5]: 103% | IR(h), activated % activity [6]: 105% | MRCKα(h) % activity [7]: 103% | Lck(h) % activity [8]: 113% | Aurora-A(h) % activity [9]: 107% | VRK2(h) % activity [10]: 109%
